# Experiments:
# Sequences of proteins named here, by UniProt entry; tags and fusion partners are left off. Residues count along the entry.
# UniProt P80188, 21-198: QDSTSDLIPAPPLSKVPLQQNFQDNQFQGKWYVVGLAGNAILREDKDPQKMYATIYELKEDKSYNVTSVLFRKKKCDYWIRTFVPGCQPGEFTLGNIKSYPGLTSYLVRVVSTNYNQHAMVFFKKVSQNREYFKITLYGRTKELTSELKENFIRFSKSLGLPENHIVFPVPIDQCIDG
# NGAL = target: T1, NGAL (Homo sapiens, UniProt P80188); experiment: NGAL:siderophore:iron binding assay (retention on 10 kDa filter); conditions: apoNGAL 10 μM, 55Fe, compound 10 μM, pH 7.4, washed on 10 kDa filter
# T1 construct: made in house; host or cells: E. coli BL-21
# Protocol: NGAL:Siderophore:Iron Binding Assays. […] After 60 minutes, the mixture was washed 3 times (YM-10) or alternatively gel filtered (PD-10, GE Biosciences). Ent loaded NGAL served as a positive control. Ferric citrate (1 mM) or Ent:iron (500 μM) served as competitors of ^55Fe binding.
# After 60 minutes at room temperature, the mixture was then washed 3 times on a 10-kDa membrane (Amicon YM-10; Millipore Corp.). Ngal loaded with iron-free enterochelin (rather than apo-Ngal) served as a positive control for iron capture. Ferric citrate (1 mM) or iron-loaded enterochelin (siderophore:Fe, […]) was used as a competitor of 55Fe binding.
# [1] = Siderophore:iron binding assay (paper chromatography)
# Source text: Siderophore:Iron Binding Assay. To test whether candidates bound iron directly, candidates (1 nmole) were mixed with ^55Fe (1 pmole), and then separated bound from free ^55Fe using paper chromatography developed in water.
# Paper chromatography: The Fe-Siderophore Binding Assay: The concept underlying the Ngal-siderophore-Fe binding assay is that the urinary molecule provides an iron binding siderophore, and that the Ngal protein provides the carrier which retains the siderophore:Fe on the 10 KDa filter. […] To directly test this idea, we will mix 55Fe with HMDB compounds and then separate bound from free 55Fe by using paper chromatography. […] The assay also provides an independent means to follow the purification of the urinary siderophore. Using this assay, we can measure the specific activity of the fractions to identify the peak activity, as well as to compare the urinary fraction with enterochelin to establish relative units of activity.
smiles,measurement,setting,value
O=C(O)CC(C(=O)O)C(O)C(=O)O (racemic) [Isocitric acid],NGAL: Chelator: Fe % Retention,NGAL,6%
same,iron chelating activity by paper chromatography (in words),[1],active

# — patent US20110268818A1, “NGAL-BINDING SIDEROPHORES AND USE THEREOF TO TREAT IRON DEFICIENCY AND IRON OVERLOAD” (priority 2008, published 2011)
